# Values quoted from earlier work in PubChem BioAssay AID1811.
# Experiments:
# Assay in all cases: PubChem AID 1811
# [1] = biological target: calmodulin-sensitive adenylate cyclase; settings: PDB complex binding affinities from literature; Kd when reported
# [2] = biological target: thrombin alpha; settings: PDB complex binding affinities from literature; Ki when reported
# [3] = biological target: glycogen phosphorylase; settings: PDB complex binding affinities from literature; for Ki: Ki when reported
# [4] = biological target: trypsin beta; settings: PDB complex binding affinities from literature; for Kd: Kd when reported; for Ki: Ki when reported
# [5] = biological target: glycogen phosphorylase b; settings: PDB complex binding affinities from literature; Ki when reported
# [6] = biological target: cell division protein kinase 2; settings: PDB complex binding affinities from literature; IC50 when reported
# [7] = biological target: penicillopepsin; settings: PDB complex binding affinities from literature; Ki when reported
# [8] = biological target: diga16; settings: PDB complex binding affinities from literature; Kd when reported
# [9] = biological target: HIV-1 protease; settings: PDB complex binding affinities from literature; Ki when reported
# [10] = biological target: glutamate [nmda] receptor; settings: PDB complex binding affinities from literature; Ki when reported
# [11] = biological target: isopentenyl diphosphate delta-isomerase; settings: PDB complex binding affinities from literature; Kd when reported
# [12] = biological target: glutamate receptor subunit 2; settings: PDB complex binding affinities from literature; IC50 when reported
# [13] = biological target: glutamate receptor 2; settings: PDB complex binding affinities from literature
# [14] = biological target: alpha-mannosidase ii; settings: PDB complex binding affinities from literature; Ki when reported
# [15] = biological target: odorant-binding protein; settings: PDB complex binding affinities from literature; for IC50: IC50 when reported
# [16] = biological target: carbonic anhydrase ii; settings: PDB complex binding affinities from literature; for Ki: Ki when reported
# [17] = biological target: aspartate aminotransferase; settings: PDB complex binding affinities from literature; Kd when reported
# [18] = biological target: oligo-peptide binding protein; settings: PDB complex binding affinities from literature; Ki when reported
# [19] = biological target: purine nucleoside phosphorylase; settings: PDB complex binding affinities from literature; Ki when reported
# [20] = biological target: orotidine 5'-monophosphate decarboxylase; settings: PDB complex binding affinities from literature; Ki when reported
# [21] = biological target: thymidylate synthase; settings: PDB complex binding affinities from literature; Ki when reported
# [22] = biological target: neuraminidase; settings: PDB complex binding affinities from literature; Ki when reported
# [23] = biological target: arginase 1; settings: PDB complex binding affinities from literature; Ki when reported
compound,measurement,setting,value
Nc1ncnc2c1ncn2[C@@H]1O[C@H](COP(=O)(O)OP(=O)(O)OP(=O)(O)O)C[C@H]1O,Kd,[1],130 µM
Cc1cc(NS(=O)(=O)c2ccccc2)cc(OCCNc2ccncc2)c1,Ki,[2],0.023 µM
O=C(NC(=O)c1ccccc1)N[C@@H]1O[C@H](CO)[C@@H](O)[C@H](O)[C@H]1O,Ki,[3],4.6 µM
N=C(N)c1cccc(C[C@H](NS(=O)(=O)c2ccc3ccccc3c2)C(=O)N2CCNCC2)c1,Kd,[4],0.125 µM
COC(=O)N[C@]1(C(N)=O)O[C@H](CO)[C@@H](O)[C@H](O)[C@H]1O,Ki,[5],15.6 µM
Cc1nc(C)c(-c2ccnc(N)n2)s1,IC50,[6],13 µM
COC(=O)[C@@H]1Cc2cccc(c2)CNC(=O)C[C@H](NC(=O)[C@@H](NC(=O)CC(C)C)C(C)C)C(=O)N[C@@H](CC(C)C)P(=O)(O)O1,Ki,[7],0.0001 µM
NCc1ccccc1,Ki,[4],1580 µM
C[C@]12CC[C@H](O)C[C@H]1CC[C@@H]1[C@@H]2CC[C@]2(C)[C@@H](C3=CC(=O)OC3)CC[C@]12O,Kd,[8],0.002 µM
N#Cc1ccc(S(=O)(=O)Nc2cccc([C@@H](c3c(O)c4c(oc3=O)CCCCCC4)C3CC3)c2)cc1,Ki,[9],0.0006 µM
NC1(C(=O)O)CCCC1,Ki,[10],15300 µM
O=C1COc2ccc(Cl)cc2CNC(=O)[C@@H]2CCCN2C(=O)[C@@H](C2CCCCC2)NC(=O)CCN1,Ki,[2],0.0013 µM
NC(N)=NCCCC(=O)NC[C@@H]1CCCN1C(=O)[C@H](CO)NS(=O)(=O)c1ccc2ccccc2c1,Ki,[2],0.079 µM
CN(C)CCOP(=O)(O)OP(=O)(O)O,Kd,[11],< 0.00012 µM
CC(C)[C@H]1CN[C@H](C(=O)O)[C@H]1CC(=O)O,IC50,[12],14.5 µM
same,Ki,[13]; Ki when reported,0.662 µM
O=C1N[C@@H]2[C@@H](O)[C@@H](O)[C@H](O)[C@@H](CO)N2C1=O,Ki,[14],5200 µM
Cn1nnc(-c2o[nH]c(=O)c2C[C@H](N)C(=O)O)n1,IC50,[13]; IC50 when reported,0.0097 µM
O=C(OCc1ccccc1)c1ccccc1,IC50,[15],3.9 µM
N[C@@H](Cc1ccccc1)C(=O)NCCOCCOCCNC(=O)c1ccc(S(N)(=O)=O)cc1,Kd,[16]; Kd when reported,0.014 µM
NC(CO)(CO)CO,Ki,[16],12 µM
O=C(O)CCCC(=O)O,Kd,[17],1500 µM
NCCCC[C@H](NC(=O)[C@@H](N)CCCCN)C(=O)O,Ki,[18],125 µM
FC(F)(CNc1nccc2oc(Cc3ccccc3-n3cncn3)nc12)[C@H]1CCCCN1,Ki,[2],4.6 µM
Nc1nc2c(ncn2COCCO)c(=O)[nH]1,Ki,[19],90 µM
O=C1CC(=O)N([C@@H]2O[C@H](COP(=O)(O)O)[C@@H](O)[C@H]2O)C(=O)N1,Ki,[20],0.0088 nM
O=c1cnn([C@@H]2O[C@H](COP(=O)(O)O)[C@@H](O)[C@H]2O)c(=O)[nH]1,Ki,[20],64 nM
COC(=O)[C@H](Cc1ccccc1)OP(=O)(O)[C@H](CC(C)C)NC(=O)[C@H](C)NC(=O)[C@H](C)NC(=O)OCc1ccccc1,Ki,[7],1.6 µM
CCCCC[C@H](O)CC,Kd,[15]; Kd when reported,3.3 µM
N=C(N)N1CCC[C@H](C(=O)NC[C@@H]2CCCN2C(=O)[C@H](CO)NS(=O)(=O)c2ccc3ccccc3c2)C1,Ki,[2],0.0036 µM
OC[C@]1(F)OC[C@@H](O)[C@@H](O)[C@@H]1O,Ki,[14],600 µM
CC(=O)NC(=O)N[C@@H]1O[C@H](CO)[C@@H](O)[C@H](O)[C@H]1O,Ki,[3],370 µM
CNS(=O)(=O)c1ccc(N=Cc2c(O)[nH]c3ccccc23)cc1,IC50,[6],0.56 µM
NS(=O)(=O)C(F)(F)F,Ki,[16],0.002 µM
N=C(N)c1ccc(/C=C2/CCCC/C(=C/c3ccc(C(=N)N)cc3)C2=O)cc1,Ki,[4],1.25 µM
CCOC(=O)CP(=O)(O)[C@H](CC(C)C)NC(=O)[C@@H](NC(=O)[C@@H](NC(=O)CC(C)C)C(C)C)C(C)C,Ki,[7],0.022 µM
CC(=O)N[C@@H]1O[C@H](CO)[C@@H](O)[C@H](O)[C@H]1O,Ki,[3],32 µM
O=C(O)CCNC(=O)[C@H]1CCCN1S(=O)(=O)c1ccc(C(=O)N[C@@H](CCC(=O)O)C(=O)O)cc1,Ki,[21],0.33 µM
CC(=O)N[C@H]1[C@H]([C@H](O)[C@H](O)CO)OC(C(=O)O)=C[C@@H]1N,Ki,[22],0.04 µM
N=C(N)c1cccc(C[C@H](NS(=O)(=O)c2ccc3ccccc3c2)C(=O)N2CCCC[C@@H]2C(=O)O)c1,Kd,[4],0.264 µM
O=c1[nH]c(=O)c2[nH]c(=O)[nH]c2[nH]1,Kd,[3]; Kd when reported,550 µM
Cc1ccc(S(=O)(=O)N[C@@H](Cc2ccc(C(=N)N)cc2)C(=O)N2CCCCC2)cc1,Ki,[2],1.3 µM
O=C(c1ccccc1)c1ccccc1,IC50,[15],3.6 µM
O=c1[nH]c2cc([N+](=O)[O-])c([N+](=O)[O-])cc2[nH]c1=O,IC50,[12],0.998 µM
Nc1nc2[nH]cc(CCc3ccc(C(=O)N[C@@H](CCC(=O)O)C(=O)O)cc3)c2c(=O)[nH]1,Ki,[21],0.109 µM
NC(=NCCC[C@H](N)C(=O)O)NO,Ki,[23],10 µM
